Test results reported in article PMC6374920, “Synthesis and biological evaluation of 3-arylcoumarins as potential anti-Alzheimer's disease agents” (Journal of Enzyme Inhibition and Medicinal Chemistry, 2019).

Protein sequences, listed by entry. Tags and fused reporters are not part of them. Residues count along the entry.
UniProt P81908, whole entry: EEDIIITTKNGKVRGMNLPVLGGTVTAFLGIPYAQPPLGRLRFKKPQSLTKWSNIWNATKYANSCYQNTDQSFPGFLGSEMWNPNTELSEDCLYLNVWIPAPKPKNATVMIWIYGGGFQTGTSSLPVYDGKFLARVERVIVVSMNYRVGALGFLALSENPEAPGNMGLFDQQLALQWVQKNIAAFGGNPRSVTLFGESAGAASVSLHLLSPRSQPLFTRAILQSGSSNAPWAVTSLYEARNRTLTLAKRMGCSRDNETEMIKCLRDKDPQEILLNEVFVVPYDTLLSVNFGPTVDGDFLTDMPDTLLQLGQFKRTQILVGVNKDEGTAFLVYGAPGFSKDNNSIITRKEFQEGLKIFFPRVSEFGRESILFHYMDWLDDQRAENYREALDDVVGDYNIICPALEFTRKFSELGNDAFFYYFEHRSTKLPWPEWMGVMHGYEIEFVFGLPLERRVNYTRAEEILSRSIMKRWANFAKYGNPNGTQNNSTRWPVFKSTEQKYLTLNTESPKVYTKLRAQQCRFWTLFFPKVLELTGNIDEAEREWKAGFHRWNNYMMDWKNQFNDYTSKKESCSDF
UniProt P19643, whole entry: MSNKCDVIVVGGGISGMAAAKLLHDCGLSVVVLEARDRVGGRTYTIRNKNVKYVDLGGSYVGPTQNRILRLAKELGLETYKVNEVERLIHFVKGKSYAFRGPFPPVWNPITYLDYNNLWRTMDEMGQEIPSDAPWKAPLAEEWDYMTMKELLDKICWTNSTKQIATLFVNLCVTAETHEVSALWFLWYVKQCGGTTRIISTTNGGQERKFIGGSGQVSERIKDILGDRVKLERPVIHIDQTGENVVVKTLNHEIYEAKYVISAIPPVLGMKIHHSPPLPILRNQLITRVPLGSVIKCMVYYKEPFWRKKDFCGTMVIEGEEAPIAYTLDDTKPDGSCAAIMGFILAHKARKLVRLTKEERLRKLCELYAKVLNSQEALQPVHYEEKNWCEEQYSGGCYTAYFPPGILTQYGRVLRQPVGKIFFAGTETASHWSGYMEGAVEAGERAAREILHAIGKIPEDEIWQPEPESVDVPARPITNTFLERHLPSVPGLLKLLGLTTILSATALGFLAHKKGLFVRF
UniProt O42275, 24-633 limits assumed: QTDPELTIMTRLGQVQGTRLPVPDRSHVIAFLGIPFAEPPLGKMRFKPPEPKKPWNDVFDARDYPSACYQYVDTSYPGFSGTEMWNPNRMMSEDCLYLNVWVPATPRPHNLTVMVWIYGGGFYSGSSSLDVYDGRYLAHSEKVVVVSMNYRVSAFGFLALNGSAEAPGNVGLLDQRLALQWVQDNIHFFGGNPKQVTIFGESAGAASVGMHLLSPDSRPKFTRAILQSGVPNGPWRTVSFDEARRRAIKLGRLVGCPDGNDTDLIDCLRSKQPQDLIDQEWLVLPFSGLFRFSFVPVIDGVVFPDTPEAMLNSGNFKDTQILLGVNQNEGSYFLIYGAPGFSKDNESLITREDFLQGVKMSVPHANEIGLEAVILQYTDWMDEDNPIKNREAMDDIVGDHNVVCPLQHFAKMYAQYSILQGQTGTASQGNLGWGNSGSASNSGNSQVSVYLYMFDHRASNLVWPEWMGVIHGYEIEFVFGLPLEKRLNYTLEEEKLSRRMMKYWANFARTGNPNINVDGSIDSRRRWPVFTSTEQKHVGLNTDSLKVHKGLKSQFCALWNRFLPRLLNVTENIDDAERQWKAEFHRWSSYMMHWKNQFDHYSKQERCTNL

Legend:
[1] = molecular target: BuChE from horse serum (Equus caballus, UniProt P81908)
[2] = In vitro antioxidant activity, FRAP assay; settings: for FRAP value relative to vitamin C: folds of the value of vitamin C; for FRAP value Antioxidant activity: FeSO4 as standard, mean ± SD (n = 3)
Protocol: The total antioxidant capacity of the 3-arylcoumarin compounds was measured by the FRAP (the Ferric Reducing Ability of Plasma) assay of Benzie et al.[29] with slight modifications. This method is based on the reduction of colourless Fe(III)-TPTZ(2,4,6-Tris(2-pyridyl)-s-triazine) complex to coloured Fe(II)-TPTZ complex by the compounds. FRAP working solution (300 mmol/L acetate buffer, 10 mmol/L TPTZ, 20 mmol/LFeCl3) was ready to use. A hundred microlitres of the sample solution was added to 3 ml of FRAP reagent and then incubated at 37 °C for 15 min. The experiments were repeated for three times. The absorbance was measured at 593 nm to clarify the changes. The standard curve was drawn with FeSO4 as standard material, and the regression equation was obtained. With 1.0 mmol/L FeSO4 as standard, the antioxidant activity of the sample is expressed in millimoles of […] required to achieve the same absorbance.

[3] = molecular target: MAO-B (Rattus norvegicus, UniProt P19643); test: In vitro monoamine oxidase inhibitory activity (Holt method, crude enzyme from rat liver); format: biochemical; settings: read-out: IC50 value MAO-B inhibitory activity; crude enzyme from Wistar rat liver; mean ± SD (n = 3)
[4] = molecular target: AChE from electric eel (Electrophorus electricus, UniProt O42275)
[5] = system: zebrafish juveniles; test: Zebrafish behavioural experiment (AlCl3-induced Alzheimer's disease model); settings: AlCl3-induced zebrafish AD model; 10, 50, 100, 1000 µg/ml

| Structure (SMILES) | IC50 [1] | FRAP value relative to vitamin C [2] | IC50 [3] | IC50 [4] | effect in zebrafish behavioural experiments (total distance of movement) [5] | FRAP value Antioxidant activity [2] |
| --- | --- | --- | --- | --- | --- | --- |
| COc1ccc(-c2cc3ccc(O)c(O)c3oc2=O)cc1 | 26.5 µM | 3–11 folds | 562 µM | 13.3 µM | – | – |
| O=c1oc2ccccc2cc1-c1ccc(Br)cc1 | > 100 µM | – | > 700 µM | – | did not show significant effects | 0.42 ± 0.06 mmol/g |
| Cc1ccc(-c2cc3ccc(O)c(O)c3oc2=O)cc1 | 13.2 µM | 3–11 folds | > 700 µM | 12.6 µM | – | – |
| Cc1ccc(C)c(-c2cc3ccc(O)c(O)c3oc2=O)c1 | 9.92 µM | 3–11 folds | > 700 µM | 13.7 µM | – | – |
| O=c1oc2c(O)cccc2cc1-c1ccccc1 | – | – | > 700 µM | – | did not show significant effects | 0.16 ± 0.05 mmol/g |
| O=c1oc2c(O)cccc2cc1-c1ccc(O)cc1 | 21.2 µM | – | > 700 µM | 68.2 µM | – | 0.66 ± 0.08 mmol/g |
| COc1ccc(-c2cc3cccc(O)c3oc2=O)cc1 | 46.4 µM | – | 503 µM | – | – | 2.98 ± 0.22 mmol/g |
| O=c1oc2ccc(O)cc2cc1-c1ccc(O)cc1 | 75.6 µM | – | > 700 µM | 40.4 µM | – | 0.41 ± 0.08 mmol/g |
| O=c1oc2c(O)c(O)ccc2cc1-c1ccc(O)cc1 | 18.9 µM | 3–11 folds | 65.8 µM | 13.1 µM | – | – |
| O=c1oc2c(O)c(O)ccc2cc1-c1ccc(O)c(O)c1 | – | 3–11 folds | – | – | – | – |
| O=c1oc2cc(O)cc(O)c2cc1-c1ccc(O)cc1 | 2.76 µM | – | 205 µM | 16.4 µM | – | 2.29 ± 0.02 mmol/g |
| Cc1ccc(-c2cc3ccc(O)cc3oc2=O)cc1 | 21.8 µM | – | > 700 µM | 82.8 µM | – | 0.35 ± 0.05 mmol/g |
| COc1ccc2oc(=O)c(-c3ccc(O)cc3)cc2c1 | 10.6 µM | – | > 700 µM | – | – | 1.47 ± 0.04 mmol/g |
| O=c1oc2c(O)c(O)ccc2cc1-c1ccc(F)cc1 | 25.8 µM | 3–11 folds | 232 µM | 27.1 µM | – | – |
| O=c1oc2c(O)c(O)ccc2cc1-c1ccccc1 | 16.1 µM | 3–11 folds | 73.5 µM | 18 µM | – | – |
| O=c1oc2cc(O)ccc2cc1-c1ccc(O)c(O)c1 | 70.9 µM | – | 330 µM | 30.9 µM | – | 8.41 ± 0.11 mmol/g |
| O=c1oc2c(O)c(O)ccc2cc1-c1ccc(Br)cc1 | 20.2 µM | 3–11 folds | > 700 µM | 8.75 µM | – | – |
| O=c1oc2cc(O)ccc2cc1-c1ccc(F)cc1 | 29.3 µM | – | > 700 µM | 74.3 µM | – | 0.38 ± 0.07 mmol/g |
| COc1ccc(-c2cc3ccc(O)c(O)c3oc2=O)cc1OC | 24.8 µM | 3–11 folds | 63.4 µM | 8.45 µM | – | – |
